Reference: ChEMBL document CHEMBL4261487, “Small structural changes of the imidazopyridine diacylglycerol acyltransferase 2 (DGAT2) inhibitors produce an improved safety profile” (Medchemcomm, 2017)

Target: T1, Diacylglycerol O-acyltransferase 2 (Homo sapiens, UniProt Q96PD7)
T1 sequence (Q96PD7 whole entry): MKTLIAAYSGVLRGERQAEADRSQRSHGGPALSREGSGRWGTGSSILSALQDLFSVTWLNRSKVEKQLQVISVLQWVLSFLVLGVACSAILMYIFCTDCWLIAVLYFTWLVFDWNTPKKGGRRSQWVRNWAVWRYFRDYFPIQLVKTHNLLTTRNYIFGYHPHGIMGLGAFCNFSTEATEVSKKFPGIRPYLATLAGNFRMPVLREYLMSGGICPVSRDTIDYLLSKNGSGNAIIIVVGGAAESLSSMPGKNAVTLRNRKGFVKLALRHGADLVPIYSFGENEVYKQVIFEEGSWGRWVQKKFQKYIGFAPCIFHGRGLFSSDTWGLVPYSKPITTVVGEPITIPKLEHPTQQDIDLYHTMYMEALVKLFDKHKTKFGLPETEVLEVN
Experiment: Inhibition of human DGAT2
Method in brief: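 IC50 against human DGAT2 in an enzymatic assay, reported as the geometric mean of at least three replicates with SEM.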

CS(=O)(=O)O.O=C([C@@H]1CCCN(c2ccc3nc(C4(n5cc(Cl)cn5)CC4)[nH]c3n2)C1)N1CCCC1 was tested, and the IC50 was 17 nM.
